Antibody variant affinities, Ab-14 heavy chain, assay B

Source: Li et al. 2023 (doi:10.1038/s41467-023-39022-2), MIT Lincoln Laboratory and A-Alpha Bio; data file from the FLAb repository.

Target peptide (SARS-CoV-2 spike, HR2 region): PDVDLGDISGINAS

Parent: Ab-14, a human scFv built as VH, three GGGGS repeats, VL. Only the CDRs of the heavy chain vary.
VH: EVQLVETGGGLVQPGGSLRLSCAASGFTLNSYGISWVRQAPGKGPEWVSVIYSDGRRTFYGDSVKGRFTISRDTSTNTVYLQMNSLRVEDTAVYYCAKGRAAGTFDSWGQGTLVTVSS
VL: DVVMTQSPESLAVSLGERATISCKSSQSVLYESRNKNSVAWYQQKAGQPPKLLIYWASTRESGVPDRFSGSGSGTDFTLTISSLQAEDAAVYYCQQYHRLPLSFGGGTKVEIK

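The parent was found by panning a naive human phage display library on the peptide. These sequences belong to a second round, designed from the earlier measurements on random variants of the parent. Group labels follow the data file (Ctrl: baseline library sampled from a position-specific scoring matrix, with some repeated check sequences; Rand: our label for a block that the file lists under HC and that is probably the random mutants of the ten best first-round binders; En: ensemble of fine-tuned language models; GP: Gaussian process model; GPLM: also part of the Gaussian process libraries; HC: hill climbing; Gen: genetic algorithm; Gibbs: Gibbs sampling; a sequence that several methods proposed may carry one label only). In AlphaSeq, yeast of one mating type display the scFv and yeast of the other type display the target. Pairs that bind mate more often; barcode pairs of the diploids are counted by sequencing. The ratio of observed to expected reads was calibrated, replicate by replicate, on BCL2-family standards whose Kd was known from biolayer interferometry. Mating was done six times.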

The parent's heavy chain CDRs are GFTLNSYGIS, VIYSDGRRTFYGDSVK, GRAAGTFDS; each variant's own CDRs replace them letter for letter. Values are apparent Kd, the geometric mean of the replicates that gave a signal; lower means stronger binding. "no signal" marks a missing value. The strain was present, yet no cells mated with the target were sequenced in any replicate, which points to weak or no binding. Values of this round are not directly comparable with the first-round values of the same sequences. A sequence that the file lists under several names has all its replicates pooled. As a blank, each scFv also met three strains without target: over all heavy chain designs, 1% of these pairings were detected, typically at 120 nM and seldom below 7.0 nM. For each scFv, signals with the empty controls are counted beside the result. In the paper, a design with two or fewer of six values counts as a poor binder. Of ten entries with the parent sequence, four were seen in most replicates (averages 2.2 nM to 240 nM), three in one and three in none, so single entries are noisy.

CDR-H1	CDR-H2	CDR-H3	group	Kd	seen in	empty controls
GFTLSSYGIS	VIYSDGRRTFYGDSVK	GEQAGTFDQ	Ctrl	15 nM	5 of 6	0 of 18
GFHLNSYGIS	VIYSDGRRTFYQDSVK	GREAGTFDD	GP_Gibbs	19 nM	2 of 6	0 of 18
GFDLNEYGIS	VIYADGLRTYYADSVK	GQLAGTFDQ	En_HC	110 pM	6 of 6	1 of 18
GFDLNEYGIS	VIYADGMRTYYADDVK	GENAGTFDT	En_Gen	800 pM	6 of 6	1 of 18
GFDLNEYGIS	VIYADGRRTFYSDSVK	GAVAGTFDK	En_HC	270 pM	6 of 6	0 of 18
GFKLNSYGIS	VIYSDGRRTFYADSVK	GKVAGTFDS	GP_Gibbs	7.5 nM	2 of 6	0 of 18
GFDLNSYGIS	VIYSDGRRTFYADDVK	GRAAGTFDV	GP_Gibbs	3.5 nM	6 of 6	0 of 18
KFSLNEYGIS	VIYSDGRRTFYGDSVK	GQTAGTFDS	GP_Gen	10 nM	6 of 6	0 of 18
GFDLNEYGIS	VIYADGSRASYADKVK	GLNGGQLIV	En_Gibbs	no signal	0 of 6	0 of 18
GFTLGSYGIS	VIYSDGRRTFYGDSVK	GRHAGTFDS	Ctrl	940 nM	1 of 6	0 of 18
GFTLNEYGIS	VIYSDGRRTFYGDSVK	GRTAGTFDQ	GPLM_Gen	920 pM	6 of 6	0 of 18
GFDLNEYGIS	VIYADGMRTAYQDSVK	GNVAGTFDL	En_Gen	610 pM	6 of 6	0 of 18
GFDLNEYGIS	VIYADGMRTAYANSVK	GQVAGTFDV	En_Gen	320 pM	6 of 6	0 of 18
GFDLNEYGIS	VIYADGMRTFYADSVK	GETAGTFDM	En_Gen	160 pM	6 of 6	0 of 18
GFTLNSYGIS	VIYSDGRRTFYGDSVK	GHVAGTFDV	GP_Gibbs	4.6 nM	6 of 6	2 of 18
GFSLNSYGIS	VIYSDGRRTFYGDSVK	GKVAGTFDT	GP_Gen	1.3 nM	6 of 6	1 of 18
GFTLNSYGIS	VIYSDGERTFYGDSVK	GRAAGTFDS	Ctrl	22 nM	6 of 6	0 of 18
GFDLNEYGIS	VIYADGLRTAYTDSVK	GNVAGTFDL	En_Gen	110 pM	5 of 6	0 of 18
GFDLDEYGIS	VIYADGRRTAYADSVK	GNVAGTFDI	En_Gen	270 pM	6 of 6	0 of 18
GFDLEEYGIS	VIYADGVRTSYVDQVK	GESGGAYYT	En_Gibbs	no signal	0 of 6	0 of 18
GFTLLSYGIS	VIYSDGRRTFYGDSVK	GTAAGTFDS	Ctrl	52 nM	3 of 6	0 of 18
GFSLNSYGIS	VIYSDGRRTFYGDSVK	GSQAGTFDS	GPLM_Gen	960 nM	1 of 6	0 of 18
GFDLNEYGIS	VIYADGRRTFYSDSVK	GEAAGTFDW	En_HC	1.3 nM	4 of 6	0 of 18
GFDLNEYGIS	VIYADGMRTAYANDVK	GEVAGTFDQ	En_Gen	380 pM	6 of 6	0 of 18
GFTLNDYGIS	VIYSDGRRTFYGDSVK	GRAAGTFDS	Ctrl+GPLM_HC	2.2 nM	7 of 12	1 of 36
GFDLNEYGIS	VIYADGRRTAYSDSVK	GEEAGTFDF	En_HC	300 pM	6 of 6	0 of 18
GFTLNSYGIS	VIYSDGRYTFYDDSVK	GQLAGTFDR	Rand	no signal	0 of 6	0 of 18
GFDLNEYGIS	VIYADGSRTAYADKVK	GNVAGTFDV	En_Gen	110 pM	6 of 6	0 of 18
GFSLNSYGIS	VIYSDGRRTFYADSVK	GQAAGTFDR	GPLM_Gen	1.5 nM	6 of 6	0 of 18
GFTLNEYGIS	VIYSDGIRTFYGDSVK	GRNAGTFDS	GPLM_HC	870 pM	6 of 6	0 of 18
GFDLEEWGIS	VIYADGSRTAYADNVK	GMSGADLMF	En_Gibbs	no signal	0 of 6	0 of 18
GFDLNEYGIS	VIYADGRRTAYTDSVK	GNAAGTFLV	En_HC	1.4 nM	6 of 6	0 of 18
GFDLNEYGIS	VIYADGVRTAYSDSVK	GEVAGTFDQ	En_Gen	3.3 nM	6 of 6	0 of 18
GFTLNSYGIS	VIYSDGRRTFYADNVK	GNAAGTFDT	GP_Gibbs	no signal	0 of 6	0 of 18
GFTLASYGIS	VIYSDGRRTFYTDSVK	GGAYGTFDS	Ctrl	68 nM	6 of 6	0 of 18
GFDLNEYGIS	VIYADGKRTAYADDVK	GENAGTFDM	En_Gen	330 pM	6 of 6	0 of 18
GFTLNTYGIS	VIYSDGRRTFYIDSVK	GRAAGRFHS	Ctrl	no signal	0 of 6	0 of 18
GFTVNSYGIS	VIYSDGRRTFYGDSVK	GRVAGTFDS	Ctrl	2.4 nM	6 of 6	0 of 18
GFDINSYGIS	VIYSDGRRKFYGDSVK	GRAAGWFWS	Rand	no signal	0 of 6	1 of 18

The remaining entries, values ahead:

Kd	seen in	empty controls	CDR-H1	CDR-H2	CDR-H3	group
no signal	0 of 6	0 of 18	GFTLNSYGIS	VIYSDGRRTFYGDFVK	GYAAGTFDS	Ctrl
380 nM	5 of 6	0 of 18	GFPLNSYGIS	VIYSDGVRTFYGDSVK	GRAAGTFDS	Ctrl
97 nM	6 of 6	1 of 18	GFDLNSYGIS	VIYSDGRRTFYDDSVK	GKAAGTFDV	GP_Gibbs
7.9 nM	2 of 6	0 of 18	GFTLNSYGIS	VIYSDGRRTFYVDSVK	GQVAGTFDS	GPLM_Gen
160 pM	6 of 6	0 of 18	GFDLNEYGIS	VIYADGRRTQYIDSVK	GEQAGTFDV	En_HC
640 pM	4 of 6	0 of 18	GFDLNEYGIS	VIYADGVRKAYADSVK	GNVAGTFDV	En_Gen
640 pM	6 of 6	1 of 18	GFSLNDYGIS	VIYSDGRRTFYDDSVK	GRAAGTFDS	GPLM_Gen
no signal	0 of 6	0 of 18	GMDINEYGVS	VIYADGNRTMYIDNVK	GIEGGSFVL	En_Gibbs
2.2 nM	6 of 6	1 of 18	GFTLNSYGIS	VIYADGRRTFYLDSVK	GRAAGTFDL	Ctrl
1.0 nM	6 of 6	0 of 18	GFNLNSYGIS	VIYSDGRRTFYSDSVK	GRQAGTFDS	GPLM_Gibbs
310 pM	6 of 6	3 of 18	GFNLDEYGIS	VIYADGMRTAYADDVK	GNVAGTFDV	En_Gen
29 nM	3 of 6	0 of 18	GFWLNQYGIS	VIYSDGRRTFYADSVK	GRAAGTFDS	GPLM_HC
36 nM	6 of 6	0 of 18	GFGLMDYGIS	VIYADGMRRSYANSFK	GAHAGTFDE	En_Gibbs
4.3 nM	6 of 6	0 of 18	GFDLNSYGIS	VIYSDGRRTFYGDSVK	GHAAGTFDD	GPLM_Gibbs
8.0 nM	12 of 12	1 of 36	GFTLNEYGIS	VIYSDGRRTEYGDSVK	GRAAGTFDS	Ctrl+GP_HC
2.4 nM	6 of 6	0 of 18	GFTLNQYGIS	VIYADGRRTFYGDSVK	GKAAGTFDS	GP_HC
no signal	0 of 6	0 of 18	GFNISEYGIS	VIYADGRRTSYKNKVK	GNDTWLFDV	En_Gibbs
no signal	0 of 6	0 of 18	GFTLNSYGIS	VIYSDGVRTFYGDSVK	GRAAGTFDT	Ctrl
no signal	0 of 6	1 of 18	LFTLNRYGIS	VIYSDGRRTFYGDSVK	GRAAGTFDS	Ctrl
no signal	0 of 6	0 of 18	GHTLNSYGIS	VIYSDGRRTFYGDSVK	GRAAGAFDT	Ctrl
340 pM	6 of 6	0 of 18	GFDLNEYGIS	VIYADGSRTAYADSVK	GENAGTFDQ	En_Gen
650 pM	6 of 6	1 of 18	GFDLNEYGIS	VIYADGSRTAYADNVK	GEVAGTFDT	En_Gen
980 pM	6 of 6	0 of 18	GFDLDEYGIS	VIYADGRRTAYIDSVK	GENAGTFDV	En_Gen
9.4 nM	6 of 6	0 of 18	GFDLNSYGIS	VIYSDGLRTFYVDSVK	GRQAGTFDS	GP_Gibbs
1.5 nM	6 of 6	0 of 18	GFSLNSYGIS	VIYSDGRRTFYKDSVK	GREAGTFDS	GPLM_Gen
no signal	0 of 6	0 of 18	GFDLMEYGIS	VIYADGVRTAYQDQVK	GEEAGALYT	En_Gibbs
29 nM	2 of 6	0 of 18	GFTLNNYGIS	VIYSDGRRTFYGDSVK	GRLAGTFES	Ctrl
160 pM	6 of 6	0 of 18	GFDLNEYGIS	VIYADGRRTAYQDSVK	GQLAGTFDT	En_HC
840 pM	6 of 6	0 of 18	GFSLNSYGIS	VIYSDGRRTFYGDSVK	GNTAGTFDS	GPLM_Gen
1.1 nM	6 of 6	0 of 18	GFDLNEYGIS	VIYADGMRTAYADSVK	GAVAGTFDV	En_Gen
74 nM	3 of 6	1 of 18	GFTLNSYGIS	VIYSDGRRTFYADSVK	GRASGTFDS	Ctrl
11 nM	6 of 6	0 of 18	GFELNSYGIS	VIYSDGRRTFYSDSVK	GHAAGTFDN	GP_HC
190 pM	6 of 6	0 of 18	GFDLNEYGIS	VIYADGQRTFYADSVK	GNVAGTFDM	En_Gen
110 nM	3 of 6	0 of 18	GFTLMSYGIS	VIYSDGRRTAYGDSVR	GRAAGTFDS	Ctrl
400 pM	6 of 6	0 of 18	GFDLEDYGIS	VIYADGRRTFYADSVK	GEIAGTFDT	En_HC
no signal	0 of 6	0 of 18	GEDLMEYGIS	VIYADGERKSYVNSVK	GGVSVTFST	En_Gibbs
1.3 µM	1 of 6	1 of 18	GFHLNSYGIS	VIYSDGRRTFYCDSVK	GQTAGTFDS	GP_Gibbs
no signal	0 of 6	0 of 18	GFTLNSYGIS	VIYSDGRRTFYGDSVK	GRAAGTNDS	Ctrl
250 pM	6 of 6	0 of 18	GFDLNEYGIS	VIYADGRRTAYLDSVK	GEAAGTFDK	En_HC

Repeated from above, the 9 best binders with a signal in all replicates:

CDR-H1	CDR-H2	CDR-H3	group	Kd	seen in	empty controls
GFDLNEYGIS	VIYADGLRTYYADSVK	GQLAGTFDQ	En_HC	110 pM	6 of 6	1 of 18
GFDLNEYGIS	VIYADGSRTAYADKVK	GNVAGTFDV	En_Gen	110 pM	6 of 6	0 of 18
GFDLNEYGIS	VIYADGRRTQYIDSVK	GEQAGTFDV	En_HC	160 pM	6 of 6	0 of 18
GFDLNEYGIS	VIYADGRRTAYQDSVK	GQLAGTFDT	En_HC	160 pM	6 of 6	0 of 18
GFDLNEYGIS	VIYADGMRTFYADSVK	GETAGTFDM	En_Gen	160 pM	6 of 6	0 of 18
GFDLNEYGIS	VIYADGQRTFYADSVK	GNVAGTFDM	En_Gen	190 pM	6 of 6	0 of 18
GFDLNEYGIS	VIYADGRRTAYLDSVK	GEAAGTFDK	En_HC	250 pM	6 of 6	0 of 18
GFDLDEYGIS	VIYADGRRTAYADSVK	GNVAGTFDI	En_Gen	270 pM	6 of 6	0 of 18
GFDLNEYGIS	VIYADGRRTFYSDSVK	GAVAGTFDK	En_HC	270 pM	6 of 6	0 of 18